Consider 21 molecules from patent US11667602B2, “Compounds and their use” (AstraZeneca AB, priority 2020, dated 2023).

In this experiment the target is T1, human RXFP1 (Homo sapiens, UniProt Q9HBX9).
T1 sequence (Q9HBX9 1-757): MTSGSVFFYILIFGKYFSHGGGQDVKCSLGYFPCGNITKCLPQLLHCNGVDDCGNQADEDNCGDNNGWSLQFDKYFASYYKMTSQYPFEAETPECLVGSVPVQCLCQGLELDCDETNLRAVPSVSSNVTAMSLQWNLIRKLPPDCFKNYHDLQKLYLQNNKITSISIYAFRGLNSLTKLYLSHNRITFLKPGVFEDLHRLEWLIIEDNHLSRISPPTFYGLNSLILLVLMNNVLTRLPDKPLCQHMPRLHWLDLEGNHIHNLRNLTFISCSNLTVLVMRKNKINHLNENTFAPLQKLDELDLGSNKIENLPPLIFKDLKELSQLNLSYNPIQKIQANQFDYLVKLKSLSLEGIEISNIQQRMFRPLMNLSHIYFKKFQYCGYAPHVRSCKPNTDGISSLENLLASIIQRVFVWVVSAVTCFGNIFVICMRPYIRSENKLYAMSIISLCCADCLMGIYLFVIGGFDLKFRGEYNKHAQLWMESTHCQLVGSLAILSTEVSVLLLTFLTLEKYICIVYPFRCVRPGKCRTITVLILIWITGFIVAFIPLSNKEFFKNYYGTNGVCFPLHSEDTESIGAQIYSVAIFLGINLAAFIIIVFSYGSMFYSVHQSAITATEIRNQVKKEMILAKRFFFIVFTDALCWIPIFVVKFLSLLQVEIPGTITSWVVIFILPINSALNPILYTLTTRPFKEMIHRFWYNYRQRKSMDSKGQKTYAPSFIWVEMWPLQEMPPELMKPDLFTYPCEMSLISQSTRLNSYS
Description: RXFP1 Hu cAMP (Test A). The class given is cell-based. Details: expressed in transfected cells; host or cells: Jump-In T-REx CHO-K1 cells (ThermoFisher), induced with 10 ng/ml doxycycline for 24 h.
The term EC50 denotes the concentration giving half of the maximal effect. “(1R,4s)-4-(2-fluoro-4-methoxy-5-(((3aR*,4S*,5S*,6aS*)-5-((3-((trifluoromethyl)sulfonyl)phenyl)carbamoyl)tetrahydro-4H-cyclopenta[d][1,3]dioxol-4-yl)carbamoyl)phenoxy)-1-methylcyclohexane-1-carboxylic acid [Example 513]” registered an EC50 of over 40000 nM.
As for `COc1cc(F)c(OC[C@H]2C[C@H](C(=O)O)C2)cc1C(=O)N[C@@H]1[C@@H]2CC[C@@H](C2)[C@@H]1C(=O)Nc1cccc(S(=O)(=O)C(F)(F)F)c1` [Example 472, (1R,3r)-3-((2-Fluoro-4-methoxy-5-(((1R,2R,3S,4S)-3-((3-((trifluoromethyl)sulfonyl)phenyl)carbamoyl)bicyclo[2.2.1]heptan-2-yl)carbamoyl)phenoxy)methyl)cyclobutane-1-carboxylic acid], the figure is 280 nM; as for `COc1cc(F)c(O[C@H]2CC[C@@](C)(C(=O)O)CC2)cc1C(=O)N[C@@H]1[C@H]2CC[C@H](C2)[C@@H]1C(=O)NCCC(F)(F)F` [Example 596], 1100 nM.
Then “(1R,4s)-4-(2-Fluoro-4-methoxy-5-(((3S*,4R*)-4-(neopentylcarbamoyl)tetrahydrofuran-3-yl)carbamoyl)phenoxy)-1-(hydroxymethyl)cyclohexane-1-carboxylic acid [Example 579]”, with 13000 nM.
As for “(1R,4s)-4-(2-fluoro-4-methoxy-5-(((3S*,4S*)-3-((3-((trifluoromethyl)sulfonyl)phenyl)carbamoyl)tetrahydro-2H-pyran-4-yl)carbamoyl)phenoxy)-1-methylcyclohexane-1-carboxylic acid [Example 519]”, the figure is over 17000 nM; as for “(1R,4s)-4-(2-Fluoro-5-(((1S*,2R*)-2-((4-fluoro-3-(pentafluoro-λ6-sulfaneyl)phenyl)carbamoyl)cyclobutyl)carbamoyl)-4-methoxyphenoxy)-1-methylcyclohexane-1-carboxylic acid [Example 571]”, 2.5 nM.
In turn, “(1R,4s)-4-(2-Cyano-4-fluoro-5-(((2S*,3R*)-3-(((1-methylcyclobutyl)methyl)carbamoyl)bicyclo[2.2.2]octan-2-yl)carbamoyl)phenoxy)-1-methylcyclohexane-1-carboxylic acid [Example 589]” registered an EC50 of 2100 nM.
In turn, “(1R,4s)-4-(2-Fluoro-4-methoxy-5-(((3S*,4R*)-4-(((1-methylcyclobutyl)methyl)carbamoyl)tetrahydrofuran-3-yl)carbamoyl)phenoxy)-1-(hydroxymethyl)cyclohexane-1-carboxylic acid [Example 581]” gave a 50% effective concentration (EC50) of 3200 nM.
Then `COc1cc(F)c(-c2nc(C(=O)O)cs2)cc1C(=O)N[C@H]1[C@@H](C(=O)Nc2cccc(S(=O)(=O)C(F)(F)F)c2)[C@@H]2C=C[C@H]1C2` (racemic) [Example 286], with 13000 nM; and `COc1cc(C#N)c(O[C@H]2CC[C@@](C)(C(=O)O)CC2)cc1C(=O)N[C@@H]1[C@H]2CC[C@H](C2)[C@@H]1C(=O)NCC1(CO)CCC1` [Example 75], with 1100 nM.
Then `COC(=O)[C@]1(C(=O)O)CC[C@@H](Oc2cc(C(=O)N[C@@H]3[C@H]4CC[C@H](C4)[C@@H]3C(=O)NCC3(C)CCC3)c(OC(C)C)cc2F)CC1` [Example 485, (1R,4r)-4-(2-Fluoro-4-isopropoxy-5-(((1S,2R,3S,4R)-3-(((1-methylcyclobutyl)methyl)carbamoyl)bicyclo[2.2.1]heptan-2-yl)carbamoyl)phenoxy)-1-(methoxycarbonyl)cyclohexane-1-carboxylic acid], with 280 nM; and `COc1cc(F)c(O[C@H]2CC[C@@](C)(C(=O)O)CC2)cc1C(=O)N[C@@H]1CCC[C@@H]1C(=O)N[C@H](C)C(C)C` [Example 60], with 1100 nM; and “(1R,4s)-4-(2-Fluoro-4-methoxy-5-(((1S*,2R*)-2-(neopentylcarbamoyl)cyclobutyl)carbamoyl)phenoxy)-1-methylcyclohexane-1-carboxylic acid [Example 569]”, with 1100 nM.
“(1R,4s)-4-(2-Cyano-4-methoxy-5-(((1S*,2R*)-2-(((1-methylcyclobutyl)methyl)carbamoyl)cyclobutyl)carbamoyl)phenoxy)-1-methylcyclohexane-1-carboxylic acid [Example 573]” returned an EC50 of 280 nM.
Take “(1R,4s)-4-(2-fluoro-4-methoxy-5-(((1S*,2R*)-2-((3-((trifluoromethyl)sulfonyl)phenyl)carbamoyl)cycloheptyl)carbamoyl)phenoxy)-1-methylcyclohexane-1-carboxylic acid [Example 517]”: the EC50 was over 40000 nM.
“(1R,4s)-4-(2-Cyano-4-methoxy-5-(((1S*,2S*,3R*,4R*)-3-(((1-methylcyclobutyl)methyl)carbamoyl)-7-oxabicyclo[2.2.1]heptan-2-yl)carbamoyl)phenoxy)-1-methylcyclohexane-1-carboxylic acid [Example 535]” displayed an EC50 of over 40000 nM.
The molecule `COc1cc(F)c(O[C@H]2CC[C@@H](C(=O)O)CC2)cc1C(=O)NC1=C(C(=O)Nc2ccc(F)c(C(F)(F)F)c2)CCC1` [Example 214, (1s,4s)-4-(2-Fluoro-5-((2-((4-fluoro-3-(trifluoromethyl)phenyl)carbamoyl)cyclopent-1-en-1-yl)carbamoyl)-4-methoxyphenoxy)cyclohexane-1-carboxylic acid] had an EC50 of 290 nM.
The molecule “(1R,4s)-4-(5-(((3R*,4S*)-1-acetyl-3-((3-((trifluoromethyl)sulfonyl)phenyl)carbamoyl)piperidin-4-yl)carbamoyl)-2-fluoro-4-methoxyphenoxy)-1-methylcyclohexane-1-carboxylic acid [Example 515]” showed an EC50 of over 40000 nM.
As for `COc1cc(F)c(-c2ccc(C(=O)O)c(C)c2)cc1C(=O)N[C@@H]1[C@H]2CC[C@H](C2)[C@@H]1C(=O)Nc1cccc(S(=O)(=O)C(F)(F)F)c1` [Example 246], the figure is 290 nM.
“(1R,4s)-4-(2-Fluoro-4-methoxy-5-(((1R*,2S*,3R*,4S*)-3-(((1-methylcyclobutyl)methyl)carbamoyl)bicyclo[2.2.2]oct-5-en-2-yl)carbamoyl)phenoxy)-1-methylcyclohexane-1-carboxylic acid [Example 545]” returned an EC50 of 45 nM.
Then `COc1cc(F)c(-c2cncc(C(=O)O)c2)cc1C(=O)N[C@H]1[C@@H](C(=O)Nc2cccc(S(=O)(=O)C(F)(F)F)c2)[C@@H]2C=C[C@H]1C2` (racemic) [Example 228], with 1100 nM.
